What was measured:
[1] = system: Autoinducer-2 production in wild-type E. coli; details: wild-type E. coli with 0.5 μM inhibitor
wild-type E. coli = details: 0.5 μM inhibitor versus wild-type and MTAN knockout
VcMTAN = target: T1, VcMTAN (Vibrio cholerae serotype O1, UniProt Q9KPI8); assay: Inhibition of purified MTAN activity (xanthine oxidase-coupled assay); format: biochemical
T1 construct: residues 1-230 for each monomer of VcMTAN in the asymmetric unit; The largest part of the N-terminal 6-His tag and the last C-terminal residue, 231; made in house; host or cells: E. coli BL21 Star (pBAD-DEST49)
T1 sequence (Q9KPI8 1-231): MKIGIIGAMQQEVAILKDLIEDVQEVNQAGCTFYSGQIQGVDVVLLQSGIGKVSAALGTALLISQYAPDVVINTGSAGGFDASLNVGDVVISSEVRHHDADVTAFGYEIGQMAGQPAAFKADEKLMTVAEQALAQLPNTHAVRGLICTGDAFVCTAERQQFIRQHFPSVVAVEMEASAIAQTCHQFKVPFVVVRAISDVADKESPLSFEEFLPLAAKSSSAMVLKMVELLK

[2] = target: T2, MTAN activity in V. cholerae N16961 cells (Vibrio cholerae serotype O1, UniProt Q9KPI8)
[3] = target: T2, MTAN activity in V. cholerae N16961 cells; assay: cell-based
[4] = system: normal human fibroblast cell lines; details: cited from earlier work
mouse xenografts = details: in vivo; cited from earlier work
[5] = system: autoinducer production by V. cholerae N16961; assay: microbe, parasite or virus in culture; details: Vibrio cholerae, read-out: AI Inhibition IC50, BB120 (ai1+ai2+)
[6] = system: head and neck squamous cell carcinoma cell lines; details: cited from earlier work

## CCCCSCC1CN(Cc2c[nH]c3c(N)ncnc23)CC1O (stereo not drawn) [BuT-DADMe-ImmA, 5′-butylthio-(BuT-)DADMe-ImmucillinA]
[1]
  AI-2 production in words: Defective AI-2 production
wild-type E. coli
  Growth phenotype of E. coli: nearly identical
VcMTAN
  type of inhibition (reaction progress curves): time-dependent, slow-onset inhibition

## CCSCC1CN(Cc2c[nH]c3c(N)ncnc23)CC1O (stereo not drawn) [EtT-DADMe-ImmA, 5′-ethylthio-(EtT-) DADMe-ImmucillinA]
[2]
  increase of cellular IC50 above Ki* (diffusion barrier): ~500 fold
VcMTAN
  type of inhibition (reaction progress curves): time-dependent, slow-onset inhibition

## CSCC1CN(Cc2c[nH]c3c(N)ncnc23)CC1O (stereo not drawn) [MT-DADMe-ImmA, 5′-methylthio-(MT-) DADMe-ImmucillinA]
[3]
  IC50: 27 nM
[4]
  effect on normal human fibroblast cell lines: without affecting normal human fibroblast cell lines
Mouse xenografts
  tumor growth in mouse xenografts: suppresses tumor growth
[5]
  IC50: 10.5 nM
VcMTAN
  Ki: 0.073 nM
  type of inhibition (reaction progress curves): time-dependent, slow-onset inhibition
[6]
  apoptosis in head and neck squamous cell carcinoma cell lines: induces apoptosis

— patent US20110190265A1, “METHODS AND COMPOSITIONS FOR TREATING BACTERIAL INFECTIONS BY INHIBITING QUORUM SENSING” (priority 2008, published 2011)
